From PubChem
Cneo AK release = Cryptococcus neoformans lysis via adenylate kinase release. hit rate 0.2% among 360,000. C. neoformans lysis, adenylate kinase release luminescence, 4 h; normalised: neutral wells 0, clomiphene wells 100. lysis activity, % at 15 µM;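 active means mean lysis activity across replicates of at least 80%, whatever share of replicates individually reach that level; inactive means mean lysis activity below 80%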
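Assay system: Cryptococcus neoformans yeast cells / Dosing: single-point compound dose / Timing: 4 h at 37 °C static, read 1 h later / Measured by: luminescence of released adenylate kinase using an AK detection reagent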
miR-122 sensor = inhibitors of miR-122 in Huh7 cells | Huh7 miR-122 Renilla luciferase sensor, 48 h; neutral wells = 0, positive control = 100 | activation (reporter increase), % at 12.5 µM | hit rate 0.3% among 340,000 | AID 602342;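 active means mean replicate activation score at least 90 and every replicate individually at or above 90; inconclusive means only one of the two criteria met; inactive means neither criterion met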;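 further: higher luciferase means less miR-122 activity so hits act as miR-122 inhibitors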
C2C12 statin = suppression of simvastatin myotoxicity | C2C12 myotubes + simvastatin, ATP luminescence, 48 h; scaled: DMSO 0, geranylgeraniol control 100 | rescue of ATP level, % at 7.49 µM | hit rate 0.78% among 330,000 | AID 602340;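 active means mean ATP rescue above about 67%, or every replicate alone reaching that limit, limit read from the data, passing the limit was not always enough; inconclusive means no clear call, values can overlap the other calls; inactive means mean under the limit and some replicate under it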;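 further: myotubes were challenged with 10 µM simvastatin during compound exposure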
Yeast UUG start-1 = yeast start codon fidelity modulation | S. cerevisiae UUG-firefly luciferase reporter, luminescence/redox ratio | activity score, % at 18.7 µM | 0.13% of 350,000 active | AID 602363;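 active means replicate mean at a twofold rise or more, about +100% in these data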;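 further: firefly luciferase made from a UUG start codon reports start codon fidelity; reporter light over untreated wells divided by growth signal over untreated wells; some hits fall short of that in this replicate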
miR-27b qPCR = miR-27b effect in Huh7 as miR-122 inhibitor selectivity check; shares compounds with miR-122 sensor; Huh7 miR-27b levels, qRT-PCR, 48 h; relative miR-27b level (unnormalised ratio), ratio at 35 µM; 35 tested, under 10 active;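 active means compounds lowering miR-27b whose fitted half-maximal dose is at most twice their top tested dose; inconclusive means flat curve with moderate drop, or poor fit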
Yeast UUG start-2 = alters UUG start codon use in yeast; AID 652061; 540 tested, under 10 active; shares compounds with Yeast UUG start-1; activation, % at 38 µM; S. cerevisiae UUG-start firefly luciferase, luminescence, 4 h; 100% means double the DMSO signal;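 active means signal increase whose fitted curve reaches an absolute level of 40 at a concentration under 10 µM; inactive means activity opposite to the expected increase, or the rest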
* marks the source's active call; other numbers are inactive results; i = inactive; u = inconclusive; x = no result given; [ ] = dose if it differs, or a comment. Only some compounds are listed: those with a hit (about 1.2% of all), similar ones and a draw of the others.

SMILES	Cneo AK release	miR-122 sensor	C2C12 statin	Yeast UUG start-1	others
c1cc(-c2noc(CC3CCCCC3)n2)ccn1	0.0	-15.6	147.0*	-9.7
CC(C)CC#Cc1ccc2c(c1)O[C@H](CN(C)C(=O)CC1CC1)[C@@H](C)CN([C@H](C)CO)S2(=O)=O	-5.9	43.3[16.7 µM]	-21.1	21.2
C[C@H](CO)N1C[C@H](C)[C@@H](CN(C)C(=O)Nc2ccc(F)cc2)Oc2c(NS(=O)(=O)c3ccccc3)cccc2C1=O	102.2*	128.4*[16.7 µM]	-20.8	26.0
COc1ccc(S(=O)(=O)Nc2cccc3c2O[C@H](CN(C)C(=O)Nc2ccc(F)cc2)[C@H](C)CN([C@@H](C)CO)C3=O)cc1	0.5	-2.6[16.7 µM]	130.2*	3.7
Cc1ccc(NC(=O)Cn2nnc(C(=O)NCc3ccc4c(c3)OCO4)c2N)cc1	-1.2	x	-28.2	-9.2
Cc1cc(C)c(NC(=O)Cn2nnc(C(=O)NCc3ccc4c(c3)OCO4)c2N)c(C)c1	1.2	1.6	92.0*	1.9
O=C(CN1CCN(c2ccccn2)CC1)Nc1ccc(F)cc1	-2.5	-5.0	115.7*	-2.9
O=C(CN1CCN(c2ccccn2)CC1)NCCc1ccccc1	2.5	0.0	111.2*	-15.6
O=C(CN1CCN(c2ccccn2)CC1)Nc1ccccc1	0.7	-11.1	3.8	-11.5
COc1ccc(-c2noc(CCCC(=O)NCCc3ccccc3)n2)cc1OC	0.2	0.3	150.9*	-0.7
CC(C)NC(=O)Nc1ccc2c(c1)C(=O)N([C@@H](C)CO)C[C@@H](C)[C@H](CN(C)C(=O)Cc1ccccc1)OCCCC[C@@H](C)O2	94.6*	-12.6[16.7 µM]	x	x
CC(C)NC(=O)Nc1ccc2c(c1)C(=O)N([C@H](C)CO)C[C@H](C)[C@H](CN(C)C(=O)Cc1ccccc1)OCCCC[C@H](C)O2	-1.3	-7.2[16.7 µM]	x	x
COc1ccc(NC(=O)Nc2ccc3c(c2)C(=O)N([C@@H](C)CO)C[C@@H](C)[C@H](CN(C)C(=O)Cc2ccccc2)OCCCC[C@H](C)O3)cc1	114.8*	4.1[16.7 µM]	x	32.7
COc1ccc(NC(=O)Nc2ccc3c(c2)C(=O)N([C@H](C)CO)C[C@H](C)[C@H](CN(C)C(=O)Cc2ccccc2)OCCCC[C@H](C)O3)cc1	101.1*	22.5[16.7 µM]	x	45.6
CC(=O)N1C[C@@H]2[C@H](c3ccccc31)[C@@H](CO)N2C(=O)Nc1ccc(F)cc1	54.4	8.3[16.7 µM]	-6.1	26.6
CNc1ccc(/C=C2\COc3ccccc3C2=O)cc1[N+](=O)[O-]	-1.9	-10.4	2.8	-5.7
O=C1/C(=C/c2ccccc2[N+](=O)[O-])COc2ccccc21	-6.3	11.1	168.6*	-10.9
C[C@@H]1CN([C@@H](C)CO)C(=O)Cc2cc(NC(=O)NC3CCCCC3)ccc2O[C@H]1CN(C)Cc1ccc(Oc2ccccc2)cc1	2.0	-28.2[16.7 µM]	-6.3	-6.4
Cc1ccc(S(=O)(=O)Nc2ccc3c(c2)C(=O)N([C@@H](C)CO)C[C@H](C)[C@@H](CN(C)C(=O)Nc2ccccc2)OCCCC[C@H](C)O3)cc1	3.5	12.0[16.7 µM]	x	-14.4
CC1CCCCN1C(=O)c1cc2nc(-c3ccccc3)cc(-c3ccccc3)n2n1 (centres undefined)	1.5	120.8*	-2.3	-7.4	miR-27b qPCR=0.901
O=C(CC(F)(F)F)N1C[C@H]2[C@@H](c3ccccc31)[C@H](CO)N2C(=O)C1CC1	44.6	28.6[16.7 µM]	-12.8	33.9
COc1cccc(N2CCN(C(=O)c3oc4ccccc4c3NC(=O)CCc3cc(OC)no3)CC2)c1	0.8	u	-2.1	-5.1	miR-27b qPCR=0.64
CCCCNS(=O)(=O)c1ccc2nc(-c3cccnc3)cc(C(=O)NC(C)C)c2c1	-2.3	68.8	1.4	-1.3
CCCCNS(=O)(=O)c1ccc2nc(-c3cccnc3)cc(C(=O)NC(C)CC)c2c1 (centres undefined)	-0.7	u	-2.9	-4.9	miR-27b qPCR=0.566
COc1ccc(S(=O)(=O)NC2CC3CCC2C3)cc1Br (centres undefined)	2.9	83.7	4.3	-9.9

Among those listed so far, these contain fluorine:
SMILES	Cneo AK release	miR-122 sensor	C2C12 statin	Yeast UUG start-1	others
C[C@H](CO)N1C[C@H](C)[C@@H](CN(C)C(=O)Nc2ccc(F)cc2)Oc2c(NS(=O)(=O)c3ccccc3)cccc2C1=O	102.2*	128.4*[16.7 µM]	-20.8	26.0
COc1ccc(S(=O)(=O)Nc2cccc3c2O[C@H](CN(C)C(=O)Nc2ccc(F)cc2)[C@H](C)CN([C@@H](C)CO)C3=O)cc1	0.5	-2.6[16.7 µM]	130.2*	3.7
O=C(CN1CCN(c2ccccn2)CC1)Nc1ccc(F)cc1	-2.5	-5.0	115.7*	-2.9
CC(=O)N1C[C@@H]2[C@H](c3ccccc31)[C@@H](CO)N2C(=O)Nc1ccc(F)cc1	54.4	8.3[16.7 µM]	-6.1	26.6
O=C(CC(F)(F)F)N1C[C@H]2[C@@H](c3ccccc31)[C@H](CO)N2C(=O)C1CC1	44.6	28.6[16.7 µM]	-12.8	33.9

Next compounds
SMILES	Cneo AK release	miR-122 sensor	C2C12 statin	Yeast UUG start-1	others
Cc1cc(C)c(S(=O)(=O)NC2CC3CCC2C3)c(C)c1 (centres undefined)	-0.6	124.7*	2.1	-21.7	miR-27b qPCR=0.474
C/C=C/c1cnc2c(c1)C(=O)N([C@H](C)CO)C[C@H](C)[C@@H](CN(C)C(=O)NC1CCCC1)O2	-0.3	-2.3[16.7 µM]	7.7	7.2
Cc1ccc(NS(=O)(=O)c2cc(C(=O)NCc3ccccn3)ccc2Cl)cc1C	-1.3	101.2*	9.3	-21.4	miR-27b qPCR=0.973
Cc1ccc(C)c(NS(=O)(=O)c2cc(C(=O)NCc3ccccn3)ccc2Cl)c1	-1.1	74.7	0.8	-25.7
COc1ccccc1NC(=O)N[C@H]1C=C[C@@H](CC(=O)N2CCC(Cc3ccccc3)CC2)O[C@@H]1CO	10.9	-5.2[16.7 µM]	24.8	19.0
COc1ccc(NC(=O)N(C)C[C@H]2Oc3c(NC(=O)Nc4c(C)noc4C)cccc3C(=O)N([C@@H](C)CO)C[C@H]2C)cc1	-0.1	-3.3[16.7 µM]	-19.5	8.3
CCOc1cc(C)c(S(=O)(=O)NC2CCCCC2)cc1C	2.1	197.8*	x	-8.5	miR-27b qPCR=0.913
O=S(=O)(Nc1cccc2[nH]ncc12)c1ccc(F)c2ncccc12	x	x	x	x	miR-27b qPCR=0.886
C[C@@H]1CCCCO[C@@H](CN(C)Cc2ccc(C(=O)O)cc2)[C@H](C)CN([C@@H](C)CO)C(=O)c2cc(NS(=O)(=O)c3ccc(F)cc3)ccc2O1	-12.0	5.1[16.7 µM]	x	111.8*	Yeast UUG start-2=i
Cc1cccc(N2CCN(C(=O)Cn3nc(Cc4ccncc4)c4ccccc4c3=O)CC2)c1C	-4.4	-13.1	7.0	-13.0	Yeast UUG start-2=5.5
C[C@H](NC(=O)C[C@H]1CC[C@@H](NC(=O)C2CCOCC2)[C@H](CO)O1)c1ccccc1	2.8	x	-1.1	-3.2
COc1ccc(CN(C)C[C@@H]2Oc3c(NC(=O)c4cc(C)nn4C)cccc3C(=O)N([C@H](C)CO)C[C@H]2C)cc1	1.6	5.7[16.7 µM]	5.3	0.2
CCCC#Cc1ccc2c(c1)O[C@H](CN(C)Cc1cncnc1)[C@@H](C)CN([C@@H](C)CO)S2(=O)=O	0.7	6.6[16.7 µM]	-35.9	80.4*	Yeast UUG start-2=i
Cc1ccc(-c2ccc3c(c2)O[C@H](CN(C)C(=O)Nc2ccccc2)[C@H](C)CN([C@H](C)CO)S3(=O)=O)cc1	2.8	x	0.2	122.3*	Yeast UUG start-2=i
CNC[C@H]1Oc2cc(C#Cc3ccccc3F)ccc2S(=O)(=O)N([C@H](C)CO)C[C@@H]1C	1.0	0.3[16.7 µM]	1.7	137.1*	Yeast UUG start-2=i
CNC[C@H]1Oc2cc(C#Cc3ccc(F)cc3)ccc2S(=O)(=O)N([C@H](C)CO)C[C@@H]1C	6.8	-0.9[16.7 µM]	-7.5	-0.4
CCCC#Cc1ccc2c(c1)O[C@@H](CN(C)C)[C@@H](C)CN([C@H](C)CO)S2(=O)=O	2.2	-1.9[16.7 µM]	13.7	127.6*	Yeast UUG start-2=i
